Values quoted from earlier work in patent publication US8945549B2, “Methods of treating antinociceptive tolerance” (Saint Louis University, priority 2010, dated 2015).

By UniProt entry, the sequences of proteins in these tests, tags left out.
UniProt P21453, whole entry, species assumed: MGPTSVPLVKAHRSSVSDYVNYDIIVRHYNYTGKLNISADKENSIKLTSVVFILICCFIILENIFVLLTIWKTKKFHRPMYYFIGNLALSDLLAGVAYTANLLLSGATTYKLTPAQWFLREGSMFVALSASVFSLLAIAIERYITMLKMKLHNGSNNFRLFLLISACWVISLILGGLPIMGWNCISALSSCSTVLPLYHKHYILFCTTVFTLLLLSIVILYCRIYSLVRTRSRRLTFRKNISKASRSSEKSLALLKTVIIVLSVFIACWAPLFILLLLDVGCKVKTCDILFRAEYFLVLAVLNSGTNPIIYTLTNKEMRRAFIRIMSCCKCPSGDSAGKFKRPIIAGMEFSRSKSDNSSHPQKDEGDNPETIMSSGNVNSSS
UniProt Q99500, whole entry, species assumed: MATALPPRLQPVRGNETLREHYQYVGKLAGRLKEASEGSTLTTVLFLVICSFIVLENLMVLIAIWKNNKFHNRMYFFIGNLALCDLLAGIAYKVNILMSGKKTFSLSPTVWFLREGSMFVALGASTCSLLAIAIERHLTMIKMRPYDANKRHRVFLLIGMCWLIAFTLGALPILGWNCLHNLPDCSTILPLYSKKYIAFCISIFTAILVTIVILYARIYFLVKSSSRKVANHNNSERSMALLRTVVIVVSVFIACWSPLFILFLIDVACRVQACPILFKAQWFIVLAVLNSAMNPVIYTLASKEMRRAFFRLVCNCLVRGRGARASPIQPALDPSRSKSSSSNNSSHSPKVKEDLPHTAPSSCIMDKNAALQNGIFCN

Key:
[1] = target: S1P1 (Homo sapiens, UniProt P21453); conditions: cited from earlier work
[2] = target: S1P3 (Homo sapiens, UniProt Q99500); conditions: relative to S1P1; cited from earlier work

## CCCCCCCCc1ccc(CC[C@](N)(CO)COP(=O)(O)O)cc1 [Fingolimod-P]
[1]
  binding affinity for S1P1: highest binding affinity
[2]
  binding affinity for S1P3: slightly lower affinity
